In paper PMC11044049 (The Journal of Biological Chemistry, 2024):

B1: E. coli sliding clamp (ß-clamp) (natural protein)
chain: MKFTVEREHLLKPLQQVSGPLGGRPTLPILGNLLLQVADGTLSLTGTDLEMEMVARVALVQPHEPGATTVPARKFFDICRGLPEGAEIAVQLEGERMLVRSGRSRFSLSTLPAADFPNLDDWQSEVEFTLPQATMKRLIEATQFSMAHQDVRYYLNGMLFETEGEELRTVATDGHRLAVCSMPIGQSLPSHSVIVPRKGVIELMRMLDGGDNPLRVQIGSNNIRAHVGDFIFTSKLVDGRFPDYRRVLPKNPDKHLEAGCDLLKQAFARAAILSNEKFRGVRLYVSENQLKITANNPEQEEAEEILDVTYSGAEMEIGFNVSYVLDVLNALKCENVRMMLTDSVSSVQIEDAASQSAAYVVMPMRL
notes: β sliding clamp of E. coli DNA polymerase III; Homodimer, each subunit with three domains; also called β-clamp; source: E. coli BLR21(DE3), purified (HisTrap, Prescission Protease, HiTrap Q); not shown: His6, N-terminal, cleaved
B2: δ′-K130A (natural protein, E. coli)
chain: MRWYPWLRPDFEKLVASYQAGRGHHALLIQALPGMGDDALIYALSRYLLCQQPQGHKSCGHCRGCQLMQAGTHPDYYTLAPEKGKNTLGVDAVREVTEKLNEHARLGGAKVVWVTDAALLTDAAANALLATLEEPPAETWFFLATREPERLLATLRSRCRLHYLAPPPEQYAVTWLSREVTMSQDALLAALRLSAGSPGAALALFQGDNWQARETLCQALAYSVPSGDWYSLLAALNHEQAPARLHWLATLLMDALKRHHGAAQVTNVDVPGLVAELANHLSPSRLQAILGDVCHIREQLMSVTGINRELLITDLLLRIEHYLQPGVVLPVPHL
notes: δ′ subunit of the E. coli clamp loader with K130A; insert bought from Twist Bioscience; source: E. coli BLR21(DE3), purified (Nickel NTA agarose, Prescission Protease, HisTrap); not shown: His6, N-terminal, cleaved

Columns and labels:
Settings in all cases: both partners purified
[1] = target: T1, γ subunit of the E. coli clamp loader (residues 1-373) (E. coli, UniProt P06710 1-373); assay: cryo-EM structure; 2.5 μM clamp loader, 2.2 μM sliding clamp, 7 μM DNA/DNA p/t substrate, 1 mM ADP·BeFx; Open-DNAp/t, Altered-Collar, Closed-DNA1 and Closed-DNA2 states
T1 construct: γ subunit of the E. coli clamp loader, truncated form, residues 1-373; Stands for the single γ subunits within the γ-complex; also called γ protein; B, C and D subunits; source: E. coli BLR21(DE3), purified (HisTrap, Prescission Protease, HisTrap flowthrough); not shown: His6, N-terminal, cleaved
T1 sequence (looked up): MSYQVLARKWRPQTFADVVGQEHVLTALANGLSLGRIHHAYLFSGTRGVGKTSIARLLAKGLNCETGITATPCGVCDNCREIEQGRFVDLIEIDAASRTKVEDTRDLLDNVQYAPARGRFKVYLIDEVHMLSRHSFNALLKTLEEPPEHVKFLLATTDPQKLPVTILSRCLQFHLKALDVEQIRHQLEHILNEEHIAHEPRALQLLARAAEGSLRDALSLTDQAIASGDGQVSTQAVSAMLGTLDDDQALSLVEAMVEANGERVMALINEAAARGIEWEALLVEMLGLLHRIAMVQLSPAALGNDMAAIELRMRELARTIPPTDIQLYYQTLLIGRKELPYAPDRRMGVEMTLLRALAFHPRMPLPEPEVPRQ

[2] = target: T1, γ subunit of the E. coli clamp loader …; assay: reconstitution and co-elution on anion exchange (HiTrap Q); purified γ (WT or K141A), δ and δ′ (WT or K130A) combined 2.5:1:1, dialysed into Buffer Q-A (50 mM Tris pH 7.5, 50 mM NaCl, 10% glycerol, 2 mM DTT) overnight at 4 °C, eluted from a HiTrap Q column with a NaCl gradient; fractions with the intact complex pooled
[3] = target: T2, γ-K141A (E. coli, UniProt P06710 1-373, K141A); assay: as above
T2 construct: γ subunit of the E. coli clamp loader with K141A; insert bought from Twist Bioscience; the range 1-373 is stated for the γ subunit in general; The limits 1-373 are not repeated for the mutant itself; source: E. coli BLR21(DE3), purified (Nickel NTA agarose, Prescission Protease, HisTrap); not shown: His6, N-terminal, cleaved
T2 sequence (looked up): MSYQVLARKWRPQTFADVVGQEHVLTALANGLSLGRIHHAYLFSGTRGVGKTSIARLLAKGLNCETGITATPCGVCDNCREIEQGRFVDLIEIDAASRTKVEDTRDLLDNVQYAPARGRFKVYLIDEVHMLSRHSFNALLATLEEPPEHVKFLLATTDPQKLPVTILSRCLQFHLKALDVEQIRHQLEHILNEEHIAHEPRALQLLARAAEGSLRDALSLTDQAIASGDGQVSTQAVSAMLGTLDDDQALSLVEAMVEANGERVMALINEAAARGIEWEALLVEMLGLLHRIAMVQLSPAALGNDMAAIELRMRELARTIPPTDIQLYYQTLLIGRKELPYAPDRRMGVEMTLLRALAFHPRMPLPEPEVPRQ

binding result [1] | binding result [2] | binding result [3] | Binder
binds |  |  | B1
 | binds | binds | B2
